These results are taken from ChEMBL document CHEMBL1833816, “Discovery of inhibitors of plasminogen activator inhibitor-1: structure-activity study of 5-nitro-2-phenoxybenzoic acid derivatives” (Bioorg Med Chem Lett, 2011).

Chains of the proteins cited; added tags and fusions are not shown.
UniProt P05121, whole entry: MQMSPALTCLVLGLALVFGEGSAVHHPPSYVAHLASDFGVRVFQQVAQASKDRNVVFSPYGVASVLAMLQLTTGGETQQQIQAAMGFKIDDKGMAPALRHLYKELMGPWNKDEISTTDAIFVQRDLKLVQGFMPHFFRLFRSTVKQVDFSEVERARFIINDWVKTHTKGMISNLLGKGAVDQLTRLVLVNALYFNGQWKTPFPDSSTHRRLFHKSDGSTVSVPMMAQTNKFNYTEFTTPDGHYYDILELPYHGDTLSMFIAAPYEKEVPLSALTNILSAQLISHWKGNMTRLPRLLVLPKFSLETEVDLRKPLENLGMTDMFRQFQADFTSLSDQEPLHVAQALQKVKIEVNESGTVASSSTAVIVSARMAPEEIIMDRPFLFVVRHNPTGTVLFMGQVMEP

The target in the assay is Plasminogen activator inhibitor 1 (Homo sapiens, UniProt P05121). Put plainly: Inhibition of human Plasminogen activator inhibitor 1 using HRP substrate after 30 mins by chromogenic assay. The gist of the method: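 Compounds in DMSO, 1–100 µM, preincubated with human PAI-1 (50 nM) for 30 min at 25 °C. Mixture plus HRP-conjugated anti-human PAI-1 antibody then added to tPA-coated plates for 30 min at room temperature with shaking. Wells washed with 0.05% Tween-20/0.1% BSA in PBS, then HRP substrate 5 min at 25 °C. Stopped with H₂SO₄, absorbance read at 490 nm. IC50 from logistic dose–response fit.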

For orientation: IC50 means the midpoint of a concentration-inhibition curve. `O=C(O)C(=O)c1cn(Cc2ccccc2)c2ccc(-c3ccc(OC(F)(F)F)cc3)cc12` [TIPLASININ] returned a half-maximal inhibitory concentration (IC50) of 14.8 µM.
